Values quoted from earlier work as cited in US20250073222A1, “METHODS FOR THE TREATMENT AND PREVENTION OF NON-VIRAL TICK-BORNE DISEASES AND SYMPTOMS THEREOF” (60 DEGREES PHARMACEUTICALS LLC, priority 2023, published 2025).

System: Babesia microti
Details: daily administration, Mongolian jirds not reported to be immunocompromised; cited from earlier work

COc1cc(NC(C)CCCN)c2ncccc2c1 (stereo not shown) [primaquine]
effect against Babesia microti: only suppressive
